# Binding of CDR-mutated scFvs to a peptide of the spike HR2 region

From the AlphaSeq antibody data of Li et al. 2023 (doi:10.1038/s41467-023-39022-2), copy in the FLAb collection.

Target: peptide PDVDLGDISGINAS, taken from heptad repeat 2 (HR2) of SARS-CoV-2 spike.

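Designed CDR sequences, proposed from the first random library and measured here. Group labels follow the data file (Ctrl: baseline library sampled from a position-specific scoring matrix, with some repeated check sequences; GP: Gaussian process model; HC: hill climbing; Gen: genetic algorithm; Gibbs: Gibbs sampling; a sequence that several methods proposed may carry one label only). AlphaSeq pools MATa yeast showing the antibodies with MATalpha yeast showing the peptide. After mating in shaken culture at 30 °C for 16 h, diploids were selected and their barcode pairs sequenced. A regression on co-assayed BCL2-family reference pairs converts the normalised counts of each replicate to an apparent Kd. Each pool was mated in six replicate cultures.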

The variants keep the heavy chain, the linker and the frameworks of Ab-14 (scFv order VH, a 15-residue (Gly4Ser)3 linker, VL).
VH: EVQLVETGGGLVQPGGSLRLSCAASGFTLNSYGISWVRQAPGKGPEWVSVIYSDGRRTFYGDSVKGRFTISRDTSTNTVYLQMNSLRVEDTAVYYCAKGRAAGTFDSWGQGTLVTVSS
VL: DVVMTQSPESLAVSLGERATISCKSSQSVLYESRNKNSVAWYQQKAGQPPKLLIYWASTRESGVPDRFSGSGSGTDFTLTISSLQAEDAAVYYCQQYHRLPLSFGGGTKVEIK

Variants are written as CDR1, CDR2 and CDR3 of the light chain (limits as in the source). Parent: KSSQSVLYESRNKNSVA, WASTRES, QQYHRLPLS. This list holds designs with at most six substitutions. Scale: log10 of Kd in nM, estimated from mating counts; low values are strong binders. Averages over replicates are reported, and they cover detected replicates only. An entry "nd" has no value in the source: the pair was not observed among the diploids in any replicate. This suggests poor binding but is not conclusive. A sequence measured in both rounds can read differently, since the two assays cover different ranges. Of ten entries with the parent sequence, four were seen in most replicates (averages 0.34 to 2.37), three in one and three in none, so single entries are noisy. As a blank, each scFv also met three strains without target: over all light chain designs, 4% of these pairings were detected, typically at 2.64 and seldom below 1.59. The authors' rule: three or more of the six replicates give a measured affinity, fewer mean a poor binder.

With KFSQSVLMESRNKNSVA / WASIRES / QQYHRLPLS [Ctrl] the result was 0.70 (6 of 6 replicates). The variant KISQSGLYESRNKNSVA / WASTRES / QQYHRLPLS [Ctrl] showed 0.39 (6 of 6 replicates). The variant KSSQSVLGEPRNKNSVA / DASTRES / QQYHRLPLS [GP_HC] gave 0.42 (6 of 6 replicates). The variant KSLQSVLYESRNKNSVA / DASTRED / QQYHQLPLS [GP_HC] gave -0.23 (6 of 6 replicates). The variant KVSFSYLYESRNKNSVA / EASTRES / QQYHRLPLS [GP_HC] showed -0.27 (6 of 6 replicates). With KVQQSVLYESRNKNSVA / EASTRCS / QQYHRLPLS [GP_Gen] the result was -0.05 (6 of 6 replicates).

For KASPSEGYESRNKNSVA / NASYRES / QQYHRLPLS [GP_Gibbs], the assay gave 0.20 (6 of 6 replicates). With KLSQSHLYESRNKNSVA / QASTRCS / QQYHRLPLS [GP_Gen] the result was 0.00 (6 of 6 replicates). With KYYPSYLYESRNKNSVA / QASTRES / QQYHRLPLS [GP_HC] the result was 0.33 (6 of 6 replicates). For KSPFSVYYGDRNKNSVA / SASTRES / QQYHRLPLS [GP_Gibbs], the assay gave 0.49 (6 of 6 replicates). For KLSQSVLYESRMWNSVA / NASTRES / QQYHRLPLS [GP_Gen], the assay gave -0.05 (6 of 6 replicates). The variant HLSQSDLYESRNKNSVA / NASTRES / QQYHRLPLS [GP_Gen] showed 0.00 (6 of 6 replicates).

With KSSISYMYESRNKNSVA / EASTRES / QQYHRLPLS [GP_HC] the result was 0.72 (6 of 6 replicates). The variant KFSGSVLYESRTKNSVA / NASTRES / QQYHRLPLS [GP_HC] gave -0.37 (6 of 6 replicates). The variant KLVQSVLYESRNKNSVA / NASTRLS / QQYHRLPLS [GP_Gen] showed -0.02 (6 of 6 replicates). The variant KSSQPVLYESRNLNAVA / WASTRES / QQYHRLPLR [Ctrl] gave nd (0 of 6 replicates). For KQSQSVLQESVNKNSVA / DASTRES / QQYHRLPLS [GP_HC], the assay gave 0.20 (6 of 6 replicates). With KLSEQALYESRNKNSVA / QASTREV / QQYHRLPLS [GP_Gibbs] the result was -0.36 (6 of 6 replicates).

For KSSISNLYESRNKNSVA / AASTRES / QQYHRLPLS [GP_HC], the assay gave 0.30 (6 of 6 replicates). The variant KSSISYLYESMNKNSVA / EASTRES / QQYHRLPLS [GP_HC] gave 0.20 (6 of 6 replicates). For KSSQLVLYEGVNKNSVA / WASTRES / QQYHRLPLS [Ctrl], the assay gave 1.40 (6 of 6 replicates). The variant QSSQSHLYESRNKNSVA / GASTRES / QQYHRLPLS [GP_HC] gave -0.17 (6 of 6 replicates). The variant KMSQSVLMESRNKNSVA / DASTRES / QQYHRLPLS [GP_Gen] showed -0.15 (6 of 6 replicates). The variant KVSQSELYESRNWNSVA / NASTRES / QQYHRLPLS [GP_Gen] gave -0.22 (6 of 6 replicates).

For KFQQDVLYESRNKNSVA / WASTRES / QQYHRLPLS [Ctrl], the assay gave 0.82 (6 of 6 replicates). With KSSQPVLYESRNKNSVA / WASTRES / QQYHQLPLS [Ctrl] the result was 1.84 (2 of 6 replicates). The variant KLEQSFLYESRNKNSVA / NASTRES / QQYHRLPLS [GP_Gen] showed -0.32 (6 of 6 replicates). With KVSQSQLYESRMKQSVA / HASQRES / QQYHRLPLS [GP_Gibbs] the result was 0.26 (6 of 6 replicates). The variant KSSHSVLYESRNKNSVA / WASTRES / QQPHRLPLS [Ctrl] gave 1.68 (1 of 6 replicates). With KSSQSVLWESRNGNSVA / WASTRES / QQYHRLPLS [Ctrl] the result was 2.17 (2 of 6 replicates).

The variant KSSQSGLYESRNKNSVA / TASTRES / QQKHRLPLS [Ctrl] showed 0.79 (6 of 6 replicates). The variant KSCQSVLYESRNKNSIA / GASTRES / QQYHRLPLS [Ctrl] gave -0.35 (6 of 6 replicates). For KSSISYPYESPNKNSVA / EASTRES / QQYHRLPLS [GP_HC], the assay gave -0.16 (6 of 6 replicates). With KLSQDALYESRNKNSVA / NASTREV / QQYHRLPLS [GP_Gibbs] the result was 0.01 (6 of 6 replicates). With KSSQSVLYESRNKNSVA / KASTRES / QQYHRLPLS [Ctrl] the result was 2.08 (2 of 6 replicates). With KLSQSDLYESRNKNNVA / EASQRES / QQYHRLPLS [GP_Gen] the result was -0.33 (6 of 6 replicates).

For KSSQSVMYESRYKNSVA / WASTRES / QQYHRLPLS [Ctrl], the assay gave 2.78 (3 of 6 replicates). With KCSQAFLYESRNKNSVA / DANTRES / QQYHRLPLS [GP_HC] the result was -0.15 (6 of 6 replicates). For KSSQSVLYEPRNRNSVA / WGSTRES / QQYHRLPLS [Ctrl], the assay gave 0.31 (6 of 6 replicates). For KSSQSVLYESAFKNSVA / WASTRES / QQYHRLPLS [Ctrl], the assay gave nd (0 of 6 replicates). The variant KLSQSVGYESRNKNNVA / AASTRES / QQYHRLPLS [GP_Gen] gave -0.48 (6 of 6 replicates). The variant KQSQSELYESVNKNSVA / DASTRES / QQYHRLPLS [GP_HC] gave -0.03 (6 of 6 replicates).

For KISQSVLYESRNKNSVA / EASTRES / QQYHRLPLS [GP_Gen], the assay gave 0.04 (6 of 6 replicates). With KSGQGVEYESRNWNSVA / GASTRES / QQYHRLPLS [GP_HC] the result was 0.15 (6 of 6 replicates). The variant KFSQSDLYEDRAKNSVA / NASTRCS / QQYHRLPLS [GP_Gibbs] showed 0.31 (6 of 6 replicates).

Excerpt, the first 3 entries:

Variant KFSQSVLMESRNKNSVA / WASIRES / QQYHRLPLS [Ctrl] showed 0.70 (6 of 6 replicates).
Variant KISQSGLYESRNKNSVA / WASTRES / QQYHRLPLS [Ctrl] showed 0.39 (6 of 6 replicates).
Variant KSSQSVLGEPRNKNSVA / DASTRES / QQYHRLPLS [GP_HC] showed 0.42 (6 of 6 replicates).